Test results from patent publication US20180312539A1, “METHODS FOR PREPARING HIGH THROUGHPUT PEPTIDOMIMETICS, ORALLY BIOAVAILABLE DRUGS AND COMPOSITIONS CONTAINING SAME” (University of Southern California, priority 2011, published 2018).

Tested on: SKBR-3 cells
Format: cell-based, human
Settings: concentrations significantly above the EC50
Protocol: Proliferation was measured by standard BrdU cell proliferation assay (Calbiochem). Cell lines were plated in 96-well plates (20,000 cells/well) in D-10 media with indicated amount of peptide with 2% DMSO, and incubated overnight. The BrdU compound was given to the cells for 2 hrs. Following the manufacturer's protocol, samples were analyzed by UV absorbance measurements at 450 nm. Peptide signal was normalized to cells incubated with 2% DMSO but no peptide. IC50 data was generated by fitting the data to a drug response equation (Log(drug) vs. Response, GraphPad Prism 5.0).
The peptides were then screened for function using a standard in vitro assays used to test efficacy of Her-2 targeting molecules. The assay involved analyzing a molecule's ability to inhibit proliferation in cell culture. A widely used kit is the BrdU cell proliferation assay. In this assay, cells are incubated with the molecule of interest before having their media supplemented with a bromodeoxyuridine. Bromodeoxyuridine is incorporated into the DNA of proliferating cells. DNA with this modified base is recognized with an antibody, and quantitated by ELISA. Applicants tested the peptides and compared them with their parental molecules.

Substance: Herceptin: FDA approved monoclonal antibody to the ectodomain of Her-2 [reference compound]
- proliferation relative to untreated cells (maximal effect): 75%
- maximal inhibition of proliferation (100−(% proliferation)): 25%
